Results taken from US8912213B2, “Synthesis and use of dual tyrosyl-DNA phosphodiesterase I (TDP1)- topoisomerase I (TOP1) inhibitors” (Purdue Research Foundation, priority 2012, dated 2014).

Protein sequences, listed by entry. Tags and fused reporters are not part of them.
UniProt Q9NUW8, whole entry: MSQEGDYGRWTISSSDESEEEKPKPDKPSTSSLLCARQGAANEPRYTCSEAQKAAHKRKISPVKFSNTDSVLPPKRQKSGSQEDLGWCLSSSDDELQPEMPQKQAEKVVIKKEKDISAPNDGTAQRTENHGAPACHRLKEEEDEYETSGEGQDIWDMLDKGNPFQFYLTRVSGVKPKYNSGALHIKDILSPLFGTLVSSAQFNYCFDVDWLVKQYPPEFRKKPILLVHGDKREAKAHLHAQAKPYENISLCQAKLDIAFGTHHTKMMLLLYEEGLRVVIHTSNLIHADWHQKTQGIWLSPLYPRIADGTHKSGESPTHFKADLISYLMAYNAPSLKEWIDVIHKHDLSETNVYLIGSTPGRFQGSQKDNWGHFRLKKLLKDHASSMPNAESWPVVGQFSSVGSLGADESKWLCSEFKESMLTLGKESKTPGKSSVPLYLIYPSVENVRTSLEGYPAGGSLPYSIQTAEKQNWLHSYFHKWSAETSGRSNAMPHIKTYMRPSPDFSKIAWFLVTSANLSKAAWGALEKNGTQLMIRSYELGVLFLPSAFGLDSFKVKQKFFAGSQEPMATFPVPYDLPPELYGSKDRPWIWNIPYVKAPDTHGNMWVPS

How the values were obtained:
HOP-62 = assay: cells; settings: Homo sapiens, HOP-62, read-out: Cytotoxicity (GI50 in μM) lung HOP-62
UACC-62 = assay: cells; settings: Homo sapiens, UACC-62, read-out: Cytotoxicity (GI50 in μM) melanoma UACC-62
Tdp1 [1] = target: T1, Tdp1 (Homo sapiens (Human), UniProt Q9NUW8); assay: Gel-based assay measuring the inhibition of recombinant Tdp1; format: biochemical;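 also: 5′-32P-labeled single-stranded DNA with 3′-phosphotyrosine incubated with 5 pM enzyme for 15 min at room temperature, inhibition seen as loss of 3′-phosphate product band by densitometry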
Tdp1 [2] = target: T1, Tdp1; assay: FRET assay, mechanism of inhibition; format: biochemical; settings: competitive inhibitor

Row | SMILES | IC50 (Tdp1 [1]) [µM] | other results
1 | COc1ccc2c(c1)-c1c(c3ccc([N+](=O)[O-])cc3c(=O)n1CCCN)C2=O.Cl [Compound 51 of (B), 6-(3-Aminopropyl)-5,6-dihydro-8-methoxy-3-nitro-5,11-dioxo-11H-indeno[1,2-c]isoquinoline Hydrochloride] |  | GI50 (HOP-62): 0.14 µM; GI50 (UACC-62): 0.14 µM
2 | CC(=O)Nc1ccc2c3c(n(CCCN=[N+]=[N-])c(=O)c2c1)-c1ccccc1C3=O [Compound 56 of (B)] | > 111 | 
3 | CNc1ccc2c3c(n(CCCN)c(=O)c2c1)-c1ccccc1C3=O [Compound 59 of (B)] | 37 to 111 | 
4 | NCCCn1c2c(c3ccc([N+](=O)[O-])cc3c1=O)C(=O)c1ccccc1-2 [Compound 60 of (B)] | > 37 | 
5 | CC(=O)Nc1ccc2c3c(n(CCCN)c(=O)c2c1)-c1ccccc1C3O (centres unmarked) [Compound 61 of (B)] | > 111 | Tdp1 inhibitory activity (in words) (Tdp1 [1]): not active
6 | Cl.NCCCn1c2c(c3ccccc3c1=O)C(=O)c1ccccc1-2 [Compound 70 of (A)] |  | Ki (Tdp1 [2]): 3.19 µM
